The text below walks through data of article PMC3285107 (ACS medicinal chemistry letters, 2012).

The test system of the test is RGS4. Nature of the test: FCPIA: inhibition of Gαo binding to RGS4. In short, it runs like this:
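Primary FCPIA screen for inhibition of Gαo binding to RGS4, run in parallel against RGS8, its closest sequence relative, to assess selectivity. IC50 values are averages of two independent experiments. Calculated ΔpIC50 mean error: 0.2 for RGS4, 0.14 for RGS8.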

With `CCCCn1c(=O)sn(CC)c1=O` [11b], the “selectivity for RGS4 versus RGS8” value is on record as around 6000 fold.
